This test deals with DvH-FDH2 (Nitratidesulfovibrio vulgaris (Desulfovibrio vulgaris Hildenborough), UniProt Q728X0). Kind of test: Effect of sodium azide / sodium nitrate on PES/DCPIP reduction by DvH-FDH2. The conditions noted are these: anaerobic and aerobic, 4-parameter sigmoidal fit. It counts as biochemical.

The structures appear in SMILES notation.

As a reminder, the IC50 is the concentration that inhibits the measured activity by half. As to `[N-]=[N+]=[N-]`, the IC50 is 800 µM.

The values are drawn from patent US20250357519A1, “APPLICATIONS OF O2-INSENSITIVE FORMATE DEHYDROGENASE” (UNIVERSITY OF MARYLAND, BALTIMORE, priority 2022, published 2025).
